This data set is described as follows: Solubility in water. The format is physicochemical.

Take “(2S)-2-benzyl-3-(cis-hexahydro-2-iso-indolinylcarbonyl)propionic acid”: the solubility in water entry is listed as “poorly soluble in water”.

Values taken from patent US7160555B2, “Immediate release medicinal compositions for oral use” (Kissei Pharmaceutical Co., Ltd., priority 1999, dated 2007).
